The values below come from patent US6451807B1, “Methods of treating sexual dysfunction in an individual suffering from a retinal disease, class 1 congestive heart failure, or myocardial infarction using a PDE5 inhibitor” (Lilly Icos, LLC., priority 1999, dated 2002).

Amino acid sequences for entries named in this document (tags omitted). Residues count along the entry.
UniProt P11541, 2-856 limits assumed: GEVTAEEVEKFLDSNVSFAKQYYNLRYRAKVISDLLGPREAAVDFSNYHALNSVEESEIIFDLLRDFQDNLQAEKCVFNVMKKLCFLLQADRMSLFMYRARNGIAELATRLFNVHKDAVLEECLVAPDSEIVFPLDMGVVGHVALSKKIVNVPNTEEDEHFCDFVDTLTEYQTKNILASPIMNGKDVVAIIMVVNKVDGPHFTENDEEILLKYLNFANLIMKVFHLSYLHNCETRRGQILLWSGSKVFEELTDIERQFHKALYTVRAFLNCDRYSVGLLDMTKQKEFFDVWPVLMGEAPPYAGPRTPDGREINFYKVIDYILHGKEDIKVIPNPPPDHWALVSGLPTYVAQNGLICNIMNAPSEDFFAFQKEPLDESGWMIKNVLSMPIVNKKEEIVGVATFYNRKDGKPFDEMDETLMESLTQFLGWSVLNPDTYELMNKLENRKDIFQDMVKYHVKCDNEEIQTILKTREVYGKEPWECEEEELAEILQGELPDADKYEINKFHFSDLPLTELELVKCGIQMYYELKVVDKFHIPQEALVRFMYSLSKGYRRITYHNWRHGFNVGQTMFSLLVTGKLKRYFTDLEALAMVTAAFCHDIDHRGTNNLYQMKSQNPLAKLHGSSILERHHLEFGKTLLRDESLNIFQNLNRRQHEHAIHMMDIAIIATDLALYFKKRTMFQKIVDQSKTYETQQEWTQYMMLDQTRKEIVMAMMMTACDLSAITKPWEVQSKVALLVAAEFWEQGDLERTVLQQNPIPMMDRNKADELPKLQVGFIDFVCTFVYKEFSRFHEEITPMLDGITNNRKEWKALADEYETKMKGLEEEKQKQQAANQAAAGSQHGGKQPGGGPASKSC
UniProt P23439, 2-850 limits assumed: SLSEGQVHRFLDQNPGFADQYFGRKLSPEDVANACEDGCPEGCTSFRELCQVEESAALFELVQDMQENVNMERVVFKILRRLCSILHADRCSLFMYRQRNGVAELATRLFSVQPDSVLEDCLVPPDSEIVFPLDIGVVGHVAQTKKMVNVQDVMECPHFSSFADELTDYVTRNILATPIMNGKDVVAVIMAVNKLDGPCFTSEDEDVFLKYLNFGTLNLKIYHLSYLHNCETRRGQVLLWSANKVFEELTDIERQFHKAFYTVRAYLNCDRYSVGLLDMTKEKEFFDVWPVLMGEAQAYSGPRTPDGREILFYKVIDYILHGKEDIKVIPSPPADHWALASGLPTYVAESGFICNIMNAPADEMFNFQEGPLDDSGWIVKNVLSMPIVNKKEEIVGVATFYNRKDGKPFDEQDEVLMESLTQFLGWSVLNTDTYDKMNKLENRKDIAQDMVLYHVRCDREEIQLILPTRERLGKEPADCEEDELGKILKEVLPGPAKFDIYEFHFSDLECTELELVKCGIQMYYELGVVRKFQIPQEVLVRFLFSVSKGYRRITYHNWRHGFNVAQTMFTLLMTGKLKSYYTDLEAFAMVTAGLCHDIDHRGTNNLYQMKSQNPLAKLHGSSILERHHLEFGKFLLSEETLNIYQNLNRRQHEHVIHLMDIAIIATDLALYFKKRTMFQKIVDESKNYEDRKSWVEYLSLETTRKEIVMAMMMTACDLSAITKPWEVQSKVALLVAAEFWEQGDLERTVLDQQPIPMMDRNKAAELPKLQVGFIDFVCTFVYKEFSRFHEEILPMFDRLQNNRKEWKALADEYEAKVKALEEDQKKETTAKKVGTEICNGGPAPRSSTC
UniProt P04972, whole entry partner: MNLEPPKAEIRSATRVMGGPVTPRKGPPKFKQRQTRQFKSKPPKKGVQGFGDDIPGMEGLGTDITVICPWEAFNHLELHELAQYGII

This assay has as its target Bovine PDE6 (Bos taurus, UniProt P11541+P23439). Briefly: PDE6 enzyme inhibition, IC50 determination. Type of assay: biochemical. Conditions: read-out: PDE6 IC50.

For orientation: IC50 means the concentration needed to halve the response being measured. With `CN1CC(=O)N2C(Cc3c([nH]c4ccccc34)C2c2ccc3c(c2)OCO3)C1=O` (stereo not shown), the IC50 was 937 nM.
